The values that follow come from patent US20180110762A1, “Compositions Methods for Treating Chronic Kidney Disease” (Merck Sharp & Dohme Corp, priority 2015, published 2018).

By UniProt entry, the sequences of proteins in these tests, tags left out. Residues count along the entry.
UniProt P05106, 27-788 limits assumed: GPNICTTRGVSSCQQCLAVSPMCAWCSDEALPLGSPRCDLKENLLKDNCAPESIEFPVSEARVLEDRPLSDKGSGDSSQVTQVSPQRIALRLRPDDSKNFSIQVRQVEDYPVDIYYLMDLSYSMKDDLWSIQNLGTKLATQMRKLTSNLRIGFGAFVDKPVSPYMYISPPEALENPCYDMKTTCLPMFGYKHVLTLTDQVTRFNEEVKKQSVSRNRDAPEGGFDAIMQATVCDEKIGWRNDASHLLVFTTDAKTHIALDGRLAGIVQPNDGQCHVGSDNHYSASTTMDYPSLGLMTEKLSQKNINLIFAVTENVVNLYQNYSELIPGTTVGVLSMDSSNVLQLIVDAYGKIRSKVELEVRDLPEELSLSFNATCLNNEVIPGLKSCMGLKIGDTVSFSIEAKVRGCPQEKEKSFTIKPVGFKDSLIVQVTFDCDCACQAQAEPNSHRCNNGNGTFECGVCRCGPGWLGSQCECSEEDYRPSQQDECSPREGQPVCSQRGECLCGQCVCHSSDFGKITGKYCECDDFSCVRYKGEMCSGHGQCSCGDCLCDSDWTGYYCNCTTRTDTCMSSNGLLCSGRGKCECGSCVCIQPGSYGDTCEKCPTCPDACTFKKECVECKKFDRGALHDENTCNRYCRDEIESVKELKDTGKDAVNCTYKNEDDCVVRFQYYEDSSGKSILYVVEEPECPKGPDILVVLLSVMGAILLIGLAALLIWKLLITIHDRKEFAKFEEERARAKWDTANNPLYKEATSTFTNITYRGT
UniProt P06756, 31-889 limits assumed: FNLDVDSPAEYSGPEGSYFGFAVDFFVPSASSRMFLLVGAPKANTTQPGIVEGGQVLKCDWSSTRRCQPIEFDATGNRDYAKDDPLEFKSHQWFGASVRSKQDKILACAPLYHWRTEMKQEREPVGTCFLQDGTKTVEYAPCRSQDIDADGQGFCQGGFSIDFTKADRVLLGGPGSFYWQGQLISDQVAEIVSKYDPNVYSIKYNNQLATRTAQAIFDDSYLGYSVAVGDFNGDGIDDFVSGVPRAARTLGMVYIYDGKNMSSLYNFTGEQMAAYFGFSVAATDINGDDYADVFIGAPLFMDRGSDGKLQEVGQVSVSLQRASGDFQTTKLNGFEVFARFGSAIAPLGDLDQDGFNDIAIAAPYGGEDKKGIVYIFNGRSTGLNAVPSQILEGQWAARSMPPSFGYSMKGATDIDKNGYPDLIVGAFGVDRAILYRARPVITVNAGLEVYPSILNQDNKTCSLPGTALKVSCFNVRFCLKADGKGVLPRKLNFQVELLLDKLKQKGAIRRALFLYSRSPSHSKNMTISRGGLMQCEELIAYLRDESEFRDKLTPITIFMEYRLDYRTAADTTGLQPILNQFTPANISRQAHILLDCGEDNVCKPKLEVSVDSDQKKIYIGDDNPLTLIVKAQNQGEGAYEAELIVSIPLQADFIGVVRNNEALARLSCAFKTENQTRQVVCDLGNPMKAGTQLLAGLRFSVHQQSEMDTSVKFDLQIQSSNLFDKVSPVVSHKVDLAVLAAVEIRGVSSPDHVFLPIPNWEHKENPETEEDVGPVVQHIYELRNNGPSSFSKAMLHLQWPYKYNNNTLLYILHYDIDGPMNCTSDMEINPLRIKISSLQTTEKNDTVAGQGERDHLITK
UniProt P06756, 891-1048 partner limits assumed: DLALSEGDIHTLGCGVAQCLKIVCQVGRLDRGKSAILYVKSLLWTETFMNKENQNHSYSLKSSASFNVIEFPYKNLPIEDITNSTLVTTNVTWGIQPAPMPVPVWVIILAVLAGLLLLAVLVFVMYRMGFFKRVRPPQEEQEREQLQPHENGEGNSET

In this experiment the target is αvβ3 purified from 293 cells overexpressing αvβ3 (Homo sapiens, UniProt P05106+P06756). The experiment in a line: SPAV3 binding assay (scintillation proximity). As to conditions: read-out: SPAV3 IC50. The text has this: • 1. Wheat germ agglutinin Scintillation Proximity Beads (SPA): Amersham • 2. Octylglucopyranoside: Calbiochem • 3. HEPES: Calbiochem • 4. NaCl: Fisher • 5. CaCl2: Fisher • 6. MgCl2: SIGMA • 7. Phenylmethylsulfonylfluoride (PMSF): SIGMA • 8. Optiplate: PACKARD • 9. (S)-3-(4-(2-(6-aminopyridin-2-yl)ethyl)benzamido)-2-((4-(iodo-^125I)phenyl)sulfonamido)propanoic acid as found in WO0046215 (specific activity 500-1000 Ci/mmole) • 10. Test compound • 11. Purified integrin receptor: αvβ3 was purified from 293 cells overexpressing αvβ3 (Duong et al., J. Bone Min. Res., 8:S378, 1993) according to Pytela (Methods in Enzymology, 144:475, 1987) • 12. Binding buffer: 50 mM HEPES, pH 7.8, 100 mM NaCl, 1 mM Ca^2+/Mg^2+, 0.5 mM PMSF • 13. 50 mM octylglucoside in binding buffer: 50-OG buffer
• 1. Pretreatment of SPA beads: • 500 mg of lyophilized SPA beads were first washed four times with 200 ml of 50-OG buffer and once with 100 ml of binding buffer, and then resuspended in 12.5 ml of binding buffer. • 2. Preparation of SPA beads and receptor mixture • In each assay tube, 2.5 μl (40 mg/ml) of pretreated beads were suspended in 97.5 μl of binding buffer and 20 ml of 50-OG buffer. […] Plates were counted using PACKARD TOPCOUNT • 5. % inhibition was calculated as follows: • A=total counts • B=nonspecific counts • C=sample counts […]
On the technique in general: SPA uses beads or plates that emit light when radiolabelled molecules are held near them.

For the compound `COc1ccc([C@H](CC(=O)O)N2CCN(CCCc3ccc4c(n3)NC(C)CC4)C2=O)cn1` (stereo partly shown), the IC50 (usually the concentration at which inhibition is half-maximal) turned out to be 0.1 nM.
